Results reported in patent US20100130432A1, “Non-Natural Amino Acids and Neurotensin Analogues Thereof” (priority 2005, published 2010).
Non-standard residues stand in square brackets, D forms with d. Residues, ends and D or L forms follow the SMILES beside them. *: point of attachment. X5 = [N-]=[N+]=N[C@@H](CCCCCN)C(=O)*; Tle = CC(C)(C)[C@H](N)C(=O)O; X1 = C[C@@H](CCCCCN)C(=O)*

Protein sequences, listed by entry. Tags and fused reporters are not part of them.
UniProt O95665, whole entry, species assumed: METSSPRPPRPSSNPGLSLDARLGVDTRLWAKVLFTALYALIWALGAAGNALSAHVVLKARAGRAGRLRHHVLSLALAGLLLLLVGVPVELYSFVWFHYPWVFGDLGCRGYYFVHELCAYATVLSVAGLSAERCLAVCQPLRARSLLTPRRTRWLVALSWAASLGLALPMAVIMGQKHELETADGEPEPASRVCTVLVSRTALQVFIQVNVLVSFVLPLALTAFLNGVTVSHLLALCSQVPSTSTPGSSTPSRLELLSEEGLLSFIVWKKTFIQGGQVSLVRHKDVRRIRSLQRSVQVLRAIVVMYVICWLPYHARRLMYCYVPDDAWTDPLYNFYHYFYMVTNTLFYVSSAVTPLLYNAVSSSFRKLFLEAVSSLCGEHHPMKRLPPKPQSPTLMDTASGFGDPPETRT

Legend:
NTR-2 = NTR-2 (Homo sapiens, UniProt O95665); experiment: Competitive NTR binding versus radiolabeled NT[8-13]
[1] = intra-stomach, -duodenum, -jejunum, -colon
Method: These samples were used for the determination of plasma drug by LC/MS/MS for estimating pharmacokinetic parameters and segmental absorption. The bioavailability of intra-stomach, intra-duodenum, intra-jejunum, intra-colon administration relative to intravenous administration and gavage was calculated.

rats [2] = experiment: d-Amphetamine induced hyperlocomotion / locomotor activity chambers; format: in vivo, rat; settings: administered orally
Description: Sound- and light-attenuated locomotor cages are used to measure the ability of potential candidates to decrease d-amphetamine-induced hyperactivity.
d-Amphetamine induced hyperlocomotion. Experimentally I male Sprague-Dawley rats were housed as described above. Rats were handled for three days prior to testing to minimize experimenter induced hyperlocomotion on test day. For experiments, sound- and light-attenuated automated photocell beam activity chambers (AccuScan Instruments, Inc., Columbus, Ohio) were used to measure locomotion. Cages were connected to a VersaMax Analyzer (AccuScan) in conjunction with an IBM computer using VersaMax 1.80-0146 software (AccuScan) to record vertical and horizontal activity. Total activity values recorded were the sum of vertical and horizontal activity. […]
Rats were placed in the activity chambers for 30 minutes to habituate and establish baseline activity levels. Then, rats were removed and given an IP or oral dose of peptide (N=7) or saline (N=8) and returned to the chamber to establish the peptide's effect on spontaneous activity levels. About 30 minutes after administration, rats were removed and given an IP injection of d-amphetamine (1 mg/kg) or vehicle and returned to the chamber for a further 1 hr to assess the effect of the peptide on induced hyperlocomotion.
Chronic Testing Protocols. […]

[3] = 100 μg/mL in whole rat blood
rats [4] = experiment: Hotplate assay; format: in vivo, rat; settings: gavage 20 mg/kg
Description: Animals. Experimentally naïve male Sprague-Dawley rats from Charles River Laboratories, Raleigh, N.C. (230-260 g) or Harlan, Prattville Ala. (240-280 g), were maintained 4 per cage in animal quarters on a regular light/dark cycle (lights on 0600-1800) with ad libitum food and water for approximately 1 week before the experiment. The range of body weights on the 2 days of testing was 230-260 grams. The experiment was done on one day, with animals allowed to recover for three days before experiments are repeated.
Peptide Preparation. Test articles are prepared at the desired concentration in saline for either IP injection or gavage administration with N=6 for each dose and vehicle. […] When complete ED50s are determined, dosing range of the peptide will be 10, 3, 1, 0.3, 0.1 of the estimated ED50, covering two log orders of range.
The Hotplate Assay. […] Animals were placed on the plate, and the latency between the time a rat was placed on the surface and when it lifts or licks a back paw (indicative of pain sensation) was determined. […] Assays are scored as the percent of maximal possible effect (% MPE) defined as 100%, which corresponds to the rats remaining on the hotplate for 30 seconds without responding. Thus, % MPE are calculated using the following equation: % MPE=[(post-drug latency−pre-drug latency)/(cut-off pre-drug latency)]×100%. […]

[5] = Pharmacokinetics of ABS201 in blood/plasma (LC/MS/MS)
Description: At selected time points, blood was removed or brain harvested and the concentration of the peptide analog determined using LC/MS/MS.
These samples were then used for the determination of plasma and brain drug levels by LC/MS/MS for estimating BBB penetration and pharmacokinetic parameters.

CC(C)C[C@H](NC(=O)[C@@H](NC(=O)[C@H](Cc1ccc(O)cc1)NC(=O)[C@@H]1CCCN1C(=O)[C@H](CCCNC(=N)N)NC(=O)[C@H](CCCCCN)N=[N+]=[N-])C(C)(C)C)C(=O)O [ABS13, N3-L-homolysine-Arg-Pro-Tyr-tertLeu-Leu-COOH] (X5-RPY[Tle]L-OH)
NTR-1/NTR-2 selectivity (NTR-2; Table 12): 1.9 | improvement of NTR-2 to NTR-1 selectivity (NTR-2; —NH2 of ABS1 changed to —N3): ~10 fold

CC(C)C[C@H](NC(=O)[C@@H](NC(=O)[C@H](Cc1ccc(O)cc1)NC(=O)[C@@H]1CCCN1C(=O)[C@H](CCCNC(=N)N)NC(=O)[C@@H](C)CCCCCN)C(C)(C)C)C(=O)O [ABS201, hLys-Arg-Pro-Tyr-t-Leu-Leu] (X1-RPY[Tle]L-OH)
metabolism in whole blood or plasma (5 or 30 min incubation at 37° C.): no evidence of metabolism | distribution into blood cellular elements (whole blood, 5 or 30 min at 37° C.): about 33% | site of absorption in the GI tract [1]: absorbed almost entirely in the intestine | physiological activity in rat behavioral models of schizophrenia relative to ABS13 (rats [2]): about three times as physiologically active as ABS13 | distribution between cellular and serum fractions [3]: distributes almost evenly between the cellular and serum fractions | metabolites detected [3]: No metabolites | analgesic effect relative to ABS212 (rats [4]): as much or more active than ABS212 | half-life ([5]; rat, in vivo, iv, 1 mg/kg): ~5 min | half-life ([5]; rat, in vivo, iv, 5 mg/kg): 17.4 min | bioavailability ([5]; rat, in vivo, po, 50 mg/kg): 0.07% | half-life ([5]; rat, in vivo, po, 50 mg/kg): 59.4 min

CC(C)C[C@H](NC(=O)[C@@H](NC(=O)[C@H](Cc1ccc(O)cc1)NC(=O)[C@@H]1CCCN1C(=O)[C@H](CCCNC(=N)N)NC(=O)[C@@H](C)CCCCCN)C(C)(C)C)C(=O)O [ABS201.2HCl] (X1-RPY[Tle]L-OH)
clearance relative to rat hepatic blood flow ([5]; 15 min intravenous infusion 100 mg/kg): 6.88 fold | half-life ([5]; SD, rat, in vivo, iv, 100 mg/kg): 29.4 min
